Entries after “also recorded” stand apart in the source; their conditions may differ.
Test system: Artificially-ventilated pentobarbital anesthetised rabbits
Test: Intravenous infusion of carrier solutions saturated with pure nitric oxide gas; exhaled NO and MAP
Conditions: for effect as NO carrier / NO delivering capacity (words): compared to the saline control

Compound | effect as NO carrier / NO delivering capacity (words) | MAP, Change (absolute value) (infusion versus pre-infusion) [cmH2O] | Exhaled NO, Change (%) (infusion versus pre-infusion) | Exhaled NO, Change (absolute value) (infusion versus pre-infusion) [ppb] | MAP, Change (%) (infusion versus pre-infusion)
CCCO [Carrier 1-Propanol, 1-Propanol] | noticeable effect; also recorded: marked effect | −10.3 |  |  | 
Albumin [Albumin (20%)] | noticeable effect | −32.4 | 4 | 0.6 | −31
